Source: US20210169980A1 (HONG KONG UNIVERSITY OF SCIENCE AND TECHNOLOGY, published 2021)

T1: LGG-2 (C. elegans, UniProt Q23536 1-130, limits assumed)
T1 construct: also called worm orthologue of LC3
T1 sequence (looked up): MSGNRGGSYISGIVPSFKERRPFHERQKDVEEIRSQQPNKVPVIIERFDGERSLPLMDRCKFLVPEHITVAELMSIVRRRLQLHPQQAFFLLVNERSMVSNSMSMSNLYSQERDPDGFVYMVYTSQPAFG


Experiments:
Experiment in all cases: ITC
LC3A = LC3A (human, UniProt Q9H492 1-121)
[..]1 = [..]1 (human, UniProt Q9H0R8 1-117)
LGG-2 = target: T1, LGG-2

Binder	Kd (LC3A) [nM]	Kd ([..]1) [nM]	fold weaker affinity against LGG-1 (LGG-2) [fold]
VEEEWVIVSDEEIEEARQKAPLEITEY [AnkB LIR (AnkB WT peptide, human 440 kD AnkB residues 1588-1614)]	3.7		
PEDDWTEFSSEEIREARQAAASHAPS [AnkG LIR (AnkG WT peptide, rat 480 kD AnkG residues 1985-2010)]		~3.7	~130
